The values below come from patent publication US6583179B2, “Substituted aminoalkylamide derivatives as antagonists of follicle stimulating hormone” (Ortho-McNeil Pharmaceutical, Inc., priority 1999, dated 2003).

The chains behind the UniProt entries cited, without tags or fusion partners. Residues count along the entry.
UniProt P23945, 18-695 limits assumed: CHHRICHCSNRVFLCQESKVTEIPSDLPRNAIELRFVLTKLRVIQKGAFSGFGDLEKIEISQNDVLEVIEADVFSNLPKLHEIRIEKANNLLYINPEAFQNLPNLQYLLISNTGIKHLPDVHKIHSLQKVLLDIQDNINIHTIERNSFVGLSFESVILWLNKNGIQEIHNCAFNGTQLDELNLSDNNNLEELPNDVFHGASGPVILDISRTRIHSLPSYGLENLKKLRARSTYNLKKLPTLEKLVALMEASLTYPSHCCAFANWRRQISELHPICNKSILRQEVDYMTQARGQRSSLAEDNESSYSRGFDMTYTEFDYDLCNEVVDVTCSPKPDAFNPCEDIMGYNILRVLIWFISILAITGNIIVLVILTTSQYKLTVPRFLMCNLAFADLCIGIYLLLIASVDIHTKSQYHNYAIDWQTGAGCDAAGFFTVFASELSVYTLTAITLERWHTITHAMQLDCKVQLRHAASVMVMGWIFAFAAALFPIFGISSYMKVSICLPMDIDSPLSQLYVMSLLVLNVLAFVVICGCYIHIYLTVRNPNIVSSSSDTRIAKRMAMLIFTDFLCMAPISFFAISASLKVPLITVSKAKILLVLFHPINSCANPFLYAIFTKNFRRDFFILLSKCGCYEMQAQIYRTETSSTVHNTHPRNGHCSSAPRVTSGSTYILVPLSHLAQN

What is called EC50 is the midpoint of the concentration-response curve.

Values joined by “and” are separate entries in the source; they are usually repeats but may differ in a detail not shown here. Equal values may be shown once. Bounds are passed on as bounds.

The experiment deals with human FSH receptor (Homo sapiens, UniProt P23945). As to the kind of experiment: hFSHR CHO cAMP assay (rhFSHR-cLUC cells, FSH-stimulated cAMP, radioimmunoassay). The settings on record: read-out: EC50 hFSHR CHO cAMP; inhibition of cAMP produced by EC70 dose of FSH (4.85 nM); maximum concentration 50 μM. The text has this: Minimum Essential Medium-Alpha (MEM-alpha), fetal bovine serum (FBS), penicillin, streptomycin, geneticin, trypsin-EDTA, Hanks' Balanced Salt Solution (no Calcium chloride, Magnesium chloride, Magnesium sulfate, or phenol red; Ca-Mg free HBSS) were purchased from Gibco BRL (Gaithersburg, Md.). The cells used for the FSH bioassay (rhFSHR-cLUC) were Chinese Hamster Ovary cells (K-1; ATCC) stably transformed with human FSH receptor (pSVK-FSHr) and a cAMP luciferase reporter gene (responsive CGα-180LUC). Follicle Stimulating Hormone (Metrodin; Fertinex) was purchased from Serono, Ltd. (Norwell, Mass.).
The rhFSHR-cLUC cell cultures were maintained in MEM-Alpha supplemented with 10% heat-inactivated FBS (HIFBS), 100 U/ml penicillin, 100 μg/mL streptomycin, and included 0.1 g/L geneticin for stable cell selection.
Forty-eight hours after the cells were plated in sterile 96-well culture plates (Corning, Corning, N.Y.) the spent media was removed and 50 μl assay media (modified growth media with 2% HIFBS) containing 2 mM IBMX (3-isobutyl-1-methyl-xanthine) was added to the cells. Compounds (25 μl) in the appropriate concentration were added followed 5 minutes later by an EC70 dose of FSH (25 μl; 160 ng/ml; 4.85 nM). After 10 minutes @ 22.5° C. (room temperature) the reaction was terminated by addition of 25 μL 0.5 N hydrochloric acid to each well. The amount of cAMP produced was measured by radioimmunoassay in a FlashPlate (DuPont, Boston, Mass.). To each flash plate 60 μL flash plate buffer was added followed by 40 μL acidified cell sample or cAMP standard, followed with the addition of 100 μl ^125l-cAMP trace. The FlashPlates were sealed, incubated overnight @ room temperature, and counted in a Packard TopCount (Packard Instrument Co., Meriden, Conn.). The cAMP radioimmunoassay results were calculated using DPM conversion and log-logit transformation of % binding (Excel program).
Test compounds were solubilized in 30% dimethyl sulfoxide (DMSO) at a concentration of 10 mM before diluting to appropriate concentrations in assay medium. The final DMSO concentration in the treated cells and in the control cells was 0.75%.
For individual experiments, a set of samples were tested including a vehicle control (assay buffer), a reference compound (hFSH) at a range of concentrations designed to elicit a minimal to maximal response, and several concentrations of test compounds together with an EC70 concentration of standard (hFSH challenge). Each compound was performed in duplicates for the primary evaluation and quadruplicates for the dose-ranging experiments. The cAMP radioimmunoassay raw data (pmol) were calculated to provide average pmol cAMP produced/ml and the percent inhibition was calculated as shown below.
% Inh=[1−(Avg.pmoltest compound+standard)/(Avg.pmolstandard)]×100
EC50 values were calculated from an analysis of the concentration-inhibition data using a linear analysis of the data transformed to a log-logit format.
A general note: Cyclic AMP is a second messenger, typically raised through Gs and lowered through Gi signalling.
Turning to `COc1ccccc1CCN(CC(=O)NCc1ccc(CN)cc1)S(=O)(=O)c1ccccc1[N+](=O)[O-]`, the EC50 is 3860 nM.

Regarding `COc1ccccc1CCN(CC(=O)NCc1ccc(CN)cc1)S(=O)(=O)c1ccccc1-c1ccsc1`, the EC50 came to 1770 nM.

In the case of `COc1ccccc1CCN(CC(=O)NCc1ccc(CN)cc1)S(=O)(=O)c1ccc(-c2ccc(C#N)cc2)s1`, the EC50 was found to be 670 nM.

Regarding `NCCCCCCNC(=O)CN(CC1Cc2ccccc21)S(=O)(=O)c1ccc(-c2ccccc2Cl)cc1` (stereo not drawn), the EC50 was 210 nM.

For `C[C@@H](CN(CC(=O)N1CCC(C2CCNCC2)CC1)S(=O)(=O)c1ccc(-c2cccc(F)c2)cc1)c1ccccc1`, the concentration for a half-maximal effect (EC50) amounted to 1080 nM.

As for `COc1ccccc1CCN(CC(=O)NCc1ccc(CN)cc1)S(=O)(=O)c1ccc(-c2cccc(C)c2)s1`, the half-maximal effective concentration (EC50) came out at 3180 nM.

For the compound `COc1ccccc1CCN(CC(=O)N1CCNCC1)S(=O)(=O)c1ccc(-c2ccc3c(c2)OCO3)cc1`, the concentration giving a half-maximal response (EC50) was 2230 nM.

As to `NCCCCCCNC(=O)CN(CCc1ccc(Cl)c(Cl)c1)S(=O)(=O)c1ccc(-c2ccccc2Cl)cc1`, the 50% effective concentration (EC50) was 1060 nM.

In the case of `COc1ccc(S(=O)(=O)N(CC(=O)NCc2ccc(CN)cc2)C[C@@H](C)c2ccccc2)cc1`, the EC50 was 410 nM.

Consider `NCc1ccc(CNC(=O)CN(CCc2ccccc2)S(=O)(=O)c2ccc(-c3ccccc3Cl)cc2)cc1`, for which the 50% effective concentration (EC50) amounted to 370 nM.

Take `COc1ccccc1CCN(CC(=O)NCc1ccc(CN)cc1)S(=O)(=O)c1cccc(-c2ccccc2OC)c1`: the EC50 is 4110 nM.

Turning to `CC(=O)Nc1ccccc1CCN(CC(=O)NCc1ccc(CN)cc1)S(=O)(=O)c1ccc(-c2ccccc2Cl)cc1`, the concentration for a half-maximal effect (EC50) worked out at 20000 nM.

For the compound `COc1cc(CCN(CC(=O)NCCCCCCN)S(=O)(=O)c2ccc(-c3ccccc3Cl)cc2)cc(Br)c1OC`, the concentration for a half-maximal effect (EC50) is greater than 50000 nM.

Turning to `COc1ccccc1CN(CC(=O)N1CCNCC1)S(=O)(=O)c1ccc(-c2cccc(N)c2)cc1`, the EC50 was no less than 50000 nM.

In the case of `COc1ccccc1CN(CC(=O)N1CCNCC1)S(=O)(=O)c1ccc(-c2cccnc2)cc1`, the EC50 is no less than 50000 nM.

Regarding `COc1ccccc1CCN(CC(=O)N1CCNCC1)S(=O)(=O)c1ccc(-c2ccsc2)cc1`, the 50% effective concentration (EC50) came out at 8580 nM.

In the case of `COc1ccccc1CCN(CC(=O)NCc1ccc(CN)cc1)S(=O)(=O)c1ccccc1-c1ccccc1OC`, the EC50 came to 2100 nM.

As to `COc1cccc(CCN(CC(=O)NCc2ccc(CN)cc2)S(=O)(=O)c2ccc(-c3ccccc3Cl)cc2)c1OC`, the concentration giving a half-maximal response (EC50) came to 110 nM.

In the case of `COc1ccccc1CCN(CC(=O)NCc1ccc(CN)cc1)S(=O)(=O)c1ccccc1-c1cccc(Cl)c1`, the EC50 worked out at 5820 nM.

`COc1ccccc1CN(CC(=O)N1CCNCC1)S(=O)(=O)c1ccc(-c2ccccc2OC)cc1`: the half-maximal effective concentration (EC50) stood at 40600 nM.

In the case of `COc1ccccc1CCN(CC(=O)NCc1ccc(CN)cc1)S(=O)(=O)c1ccc(-c2cccc(F)c2)s1`, the EC50 is 3510 nM.

Turning to `COc1ccccc1CCN(CC(=O)NCCCCCCN)S(=O)(=O)c1ccc(-c2ccccc2OC)cc1`, the 50% effective concentration (EC50) worked out at 370 nM.

As to `Cc1ccc(-c2ccc(S(=O)(=O)N(CC(=O)NCc3ccc(CN)cc3)C[C@H](C)c3ccccc3)cc2)c(Cl)c1`, the EC50 came out at 2360 nM.

Turning to `COc1ccccc1CCN(CC(=O)NCc1ccc(CN)cc1)S(=O)(=O)c1ccccc1-c1cccc(F)c1`, the half-maximal effective concentration (EC50) is 3650 nM.

As to `COc1ccccc1CCN(CC(=O)NCc1ccc(CN)cc1)S(=O)(=O)c1ccc(-c2ccc3c(c2)OCO3)s1`, the 50% effective concentration (EC50) worked out at 3880 nM.

Consider `Cc1ccccc1-c1ccc(S(=O)(=O)N(CC(=O)NCCCCCCN)C[C@H](C)c2ccccc2)cc1`, for which the EC50 is 90 nM.

Take `C[C@H](CN(CC(=O)NCc1ccc(CN)cc1)S(=O)(=O)c1ccc(-c2ccccc2C(F)(F)F)cc1)c1ccccc1`: the concentration for a half-maximal effect (EC50) came to 340 nM.

With `C[C@@H](CN(CC(=O)NCc1ccc(CN)cc1)S(=O)(=O)c1ccc(-c2ccncc2)cc1)c1ccccc1`, the EC50 is 900 nM.

For the compound `COc1ccccc1CCN(CC(=O)NCc1ccc(CN)cc1)S(=O)(=O)c1ccc(-c2cccc(C#N)c2)s1`, the EC50 was found to be 7360 nM.

`C[C@@H](CN(CC(=O)NCc1ccc(CN)cc1)S(=O)(=O)c1ccc(-c2cccc(Br)c2)cc1)c1ccccc1`: the EC50 was 700 nM.

Consider `COc1ccccc1CCN(CC(=O)NCc1ccc(CN)cc1)S(=O)(=O)c1ccccc1-c1cccc2ccccc12`, for which the EC50 came to 9810 nM.

As to `NCCCCCCNC(=O)CN(CCc1c(Cl)cccc1Cl)S(=O)(=O)c1ccc(-c2ccccc2Cl)cc1`, the EC50 was found to be 280 nM.

Regarding `COc1ccccc1CCN(CC(=O)NCc1ccc(CN)cc1)S(=O)(=O)c1ccc(-c2cccc(Cl)c2)s1`, the half-maximal effective concentration (EC50) stood at 7520 nM.

Regarding `COc1cccc(CN(CC(=O)NCC2CCC(CN)CC2)S(=O)(=O)c2ccc(-c3cccc(F)c3)cc2)c1` (stereo not drawn), the EC50 came out at 1410 nM.

For `NCCCCCCNC(=O)CN(CCc1ccccc1C(F)(F)F)S(=O)(=O)c1ccc(-c2ccccc2Cl)cc1`, the EC50 was 3180 nM.

With `COc1ccccc1CN(CC(=O)N1CCNCC1)S(=O)(=O)c1ccc(-c2ccccc2)cc1`, the EC50 was 38900 nM.

Turning to `C[C@H](CN(CC(=O)NCc1ccc(CN)cc1)S(=O)(=O)c1ccc(-c2ccccc2)cc1)c1ccccc1`, the EC50 came to 350 nM.

`C[C@@H](CN(CC(=O)NCc1ccc(CN)cc1)S(=O)(=O)c1ccc(-c2ccc3ccccc3c2)cc1)c1ccccc1`: the EC50 is 18800 nM.

For the compound `COc1ccccc1CN(CC(=O)N1CCNCC1)S(=O)(=O)c1ccc(-c2ccccc2Cl)cc1`, the concentration giving a half-maximal response (EC50) was no less than 50000 nM.

As for `COc1ccccc1CCN(CC(=O)NCc1ccc(CN)cc1)S(=O)(=O)c1cccc(-c2cccnc2)c1`, the EC50 was found to be 8270 nM.

As for `COc1ccccc1CCN(CC(=O)NCc1ccc(CN)cc1)S(=O)(=O)c1ccc(-c2ccc(OC)c(OC)c2OC)s1`, the EC50 came to 680 nM.

On to `COc1ccccc1CCN(CC(=O)NCc1ccc(CN)cc1)S(=O)(=O)c1ccc(-c2c(C)noc2C)s1`, for which the EC50 amounted to 5680 nM.

As to `COc1ccccc1CN(CC(=O)N1CCNCC1)S(=O)(=O)c1ccc(-c2ccc(C#N)cc2)cc1`, the concentration giving a half-maximal response (EC50) is 38200 nM.

Consider `Cc1ccccc1-c1ccc(S(=O)(=O)N(CC(=O)NCc2ccc(CN)cc2)CC(C)c2ccc(Cl)cc2)cc1` (stereo not drawn), for which the EC50 amounted to 690 nM.

As to `C[C@@H](CN(CC(=O)NCc1ccc(CN)cc1)S(=O)(=O)c1ccc(-c2ccccc2F)cc1)c1ccccc1` [451], the 50% effective concentration (EC50) is 290 nM and 520 nM.

On to `CCCCCc1ccc(S(=O)(=O)N(CC(=O)NCc2ccc(CN)cc2)C[C@H](C)c2ccccc2)cc1`, for which the EC50 was determined as 870 nM.

Consider `COc1ccccc1CCN(CC(=O)NCc1ccc(CN)cc1)S(=O)(=O)c1ccc(-c2ccccc2Cl)s1`, for which the EC50 stood at 2450 nM.

Regarding `COc1ccccc1CCN(CC(=O)NCc1ccc(CN)cc1)S(=O)(=O)c1cccc(-c2ccc(C#N)cc2)c1` [265], the EC50 was found to be 2690 nM.

Consider `COc1ccccc1CCN(CC(=O)N1CCNCC1)S(=O)(=O)c1ccc(-c2ccc(F)cc2)cc1`, for which the EC50 is 10700 nM.

In the case of `C[C@@H](CN(CC(=O)NCc1ccc(CN)cc1)S(=O)(=O)c1ccc(-c2cccc(-c3ccccc3)c2)cc1)c1ccccc1`, the EC50 came to 3350 nM.

With `COc1ccccc1CCN(CC(=O)NCc1ccc(CN)cc1)S(=O)(=O)c1ccc([N+](=O)[O-])cc1`, the EC50 came to 2130 nM.

`COc1cccc(-c2ccc(S(=O)(=O)N(CC(=O)NCc3ccc(CN)cc3)C[C@@H](C)c3ccccc3)cc2)c1`: the concentration for a half-maximal effect (EC50) stood at 490 nM.

For `COc1ccc(-c2ccc(S(=O)(=O)N(CC(=O)N3CCNCC3)Cc3ccccc3OC)cc2)cc1`, the EC50 was no less than 50000 nM.

`COc1ccccc1CCN(CC(=O)N1CCNCC1)S(=O)(=O)c1ccc(-c2cccc(Cl)c2)cc1`: the half-maximal effective concentration (EC50) came to 9090 nM.

Turning to `C[C@@H](CN(CC(=O)NCc1ccc(CN)cc1)S(=O)(=O)c1ccc(-c2c(F)cccc2F)cc1)c1ccccc1`, the concentration giving a half-maximal response (EC50) stood at 200 nM.

`COc1ccccc1CCN(CC(=O)N1CCNCC1)S(=O)(=O)c1ccc(-c2ccccc2OC)cc1`: the EC50 is 9440 nM.

Consider `COc1cccc(-c2ccccc2S(=O)(=O)N(CCc2ccccc2OC)CC(=O)NCc2ccc(CN)cc2)c1`, for which the EC50 was determined as 5500 nM.

On to `CCCc1ccc(S(=O)(=O)N(CC(=O)NCc2ccc(CN)cc2)C[C@H](C)c2ccccc2)cc1`, for which the EC50 was found to be 240 nM.

For the compound `COc1ccccc1CCN(CC(=O)NCc1ccc(CN)cc1)S(=O)(=O)c1ccccc1-c1cccc(C(F)(F)F)c1`, the EC50 worked out at 6830 nM.

Consider `C[C@@H](CN(CC(=O)NCc1ccc(CN)cc1)S(=O)(=O)c1ccc(-c2cccc3c2sc2ccccc23)cc1)c1ccccc1`, for which the concentration for a half-maximal effect (EC50) was greater than 50000 nM.
